{"sequences": {"note": "Amino acid sequences for entries named in this document (tags omitted). A change or cut given only in a name is not applied to a line headed by its entry.", "UniProt P62942": "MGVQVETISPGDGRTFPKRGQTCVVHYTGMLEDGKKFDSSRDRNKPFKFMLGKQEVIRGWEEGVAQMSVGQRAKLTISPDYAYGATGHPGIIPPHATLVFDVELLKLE"}, "source": "patent US20220152100A1", "about": "“METHODS FOR CONTROLLED ACTIVATION OR ELIMINATION OF THERAPEUTIC CELLS” (Bellicum Pharmaceuticals, Inc., priority 2014, published 2022)", "origin": "cited, not measured here", "key": {"FRB-PLF": {"biological_target": "FRB-PLF (Homo sapiens, UniProt P42345+P62942, K2095P/T2098L/W2101F)", "settings": "cited from earlier work"}, "[1]": {"biological_target": "wt FRB (K2095 T2098 W2101) (Homo sapiens, UniProt P42345+P62942)", "settings": "cited from earlier work"}}, "data": [{"substance": "R-Isopropoxyrapamycin", "values": [{"measurement": "EC50", "setting": "FRB-PLF", "value": 8.5, "unit": "nM"}, {"measurement": "EC50", "setting": "[1]", "value": 300, "unit": "nM"}]}]}
